The chains behind the UniProt entries cited, without tags or fusion partners.
UniProt Q8TCW9, whole entry: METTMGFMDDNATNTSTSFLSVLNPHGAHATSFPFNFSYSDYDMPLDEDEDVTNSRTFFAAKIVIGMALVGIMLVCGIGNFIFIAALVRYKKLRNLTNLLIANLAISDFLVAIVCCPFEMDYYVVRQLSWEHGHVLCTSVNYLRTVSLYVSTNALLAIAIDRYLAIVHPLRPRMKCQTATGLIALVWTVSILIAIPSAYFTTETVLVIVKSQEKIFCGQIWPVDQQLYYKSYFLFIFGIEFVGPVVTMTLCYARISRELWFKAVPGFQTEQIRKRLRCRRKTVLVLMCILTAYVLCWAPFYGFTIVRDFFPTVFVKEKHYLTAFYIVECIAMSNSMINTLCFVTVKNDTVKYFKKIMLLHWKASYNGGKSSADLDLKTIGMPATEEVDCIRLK

In US8372973B2, “Prokineticin 1 receptor antagonists” (Janssen Pharmaceutica N.V., priority 2005, dated 2013):

Biological target: GPR73 (prokineticin 1 receptor) (Homo sapiens, UniProt Q8TCW9)
Assay: PK1 functional assay: Ca2+ mobilization on the FLIPR
Description: At a time of 24 h prior to running the assay, in cell culture media (DMEM containing high Glucose and L-glutamine, 10% FBS, 1% Pen/Streptomycin, 1% Sodium Pyruvate, 20 mM HEPES, Zeocin 200 mg/L), […] of 1.3*10^6/ml HEK 293 GPR73 (prokineticin 1 receptor) expressing cells were plated in a 96 well poly-d-lysine coated plate (Costar), and incubated at 37° C. and 5% CO2. On the day in which the assay was run, the media was removed and […] of 5× Calcium Plus Dye (Molecular Devices) which was previously resuspended with 200 mL of assay buffer [HBSS w/Ca^2+ and Mg^2+ w/o phenol red, 20 mM HEPES, 0.1% BSA, 10 mL probenecid (710 mg probenecid in 5 mL of 1N NaOH, to which was then added 5 mL HBSS containing 20 mM HEPES)] was added to each well of the 96-well plate. The plate was incubated at 37° C. and 5% CO2 for 30 min in dark. The plate was removed and allowed to reach RT for 15 min in the dark. The assay was then run on the FLIPR. In Brief: base line read for 1 min, compound added (25 μL) and incubated for 4 min, 15 seconds, PK1 ligand preparation added (25 μL) for a final concentration of a previously determined EC50 and fluorescence was counted for 1 min, 45 seconds. Baseline is described as the amount of relative fluorescence read when buffer alone is added to cells. Baseline was subtracted from all wells. Percent of control was calculated as follows: […]

What does the source list for `COc1ccc(Cn2c(NCc3cnc(C)cc3C)nc(=O)n(Cc3ccncc3)c2=O)cc1`?
Ca^2+ Mobilization % Inh @10 μM (@10 μM compound): 42%; IC50 (read-out: Ca^2+ Mobilization IC50, HEK 293 GPR73 expressing cells, PK1 ligand preparation at its EC50): > 10 µM
